Only a part is listed here, and it is no random draw. Active and inactive are the calls of the source. Rule as the data show it: active = inhibition above about 22%; inactive = the rest.
Assay: cytotoxicity in HEK cells, cytotoxicity control for IDE inhibitor project, cell-based, luminescence (AID 449730);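 also: 0% = vehicle wells and 100% = reference cytotoxic drug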
Conditions: HEK293 cytotoxicity, ATP luminescence; at 5.59 µM; stronger effect = higher value

SMILES | inhibition
O=c1c2ccccc2[se]n1-c1ccccc1 | active: 45.4%
